For 2 molecules, Efficacy and Activity results are on record in ChEMBL document CHEMBL5325425, “Design, synthesis and biological evaluation of pyrrolopyrimidine derivatives as novel and selective positive modulator of the small conductance Ca2+-activated K+ channels” (Eur J Med Chem, 2023).

Chains of the proteins cited; added tags and fusions are not shown.
UniProt Q9H2S1, whole entry: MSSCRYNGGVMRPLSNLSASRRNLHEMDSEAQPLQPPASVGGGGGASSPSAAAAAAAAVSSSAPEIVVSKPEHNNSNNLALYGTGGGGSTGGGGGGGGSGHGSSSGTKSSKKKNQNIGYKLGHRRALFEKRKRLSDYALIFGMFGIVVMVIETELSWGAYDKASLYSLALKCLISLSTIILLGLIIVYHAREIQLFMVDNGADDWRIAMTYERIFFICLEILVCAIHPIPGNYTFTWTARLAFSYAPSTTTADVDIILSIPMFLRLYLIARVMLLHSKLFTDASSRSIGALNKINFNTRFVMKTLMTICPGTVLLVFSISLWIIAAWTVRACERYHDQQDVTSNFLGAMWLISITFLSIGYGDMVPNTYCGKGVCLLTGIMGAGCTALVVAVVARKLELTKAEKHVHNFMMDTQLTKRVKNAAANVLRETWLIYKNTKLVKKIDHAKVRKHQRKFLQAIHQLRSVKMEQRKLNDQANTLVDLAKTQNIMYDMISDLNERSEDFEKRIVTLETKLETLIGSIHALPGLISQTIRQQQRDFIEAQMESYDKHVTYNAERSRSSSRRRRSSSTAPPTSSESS
UniProt O15554, whole entry: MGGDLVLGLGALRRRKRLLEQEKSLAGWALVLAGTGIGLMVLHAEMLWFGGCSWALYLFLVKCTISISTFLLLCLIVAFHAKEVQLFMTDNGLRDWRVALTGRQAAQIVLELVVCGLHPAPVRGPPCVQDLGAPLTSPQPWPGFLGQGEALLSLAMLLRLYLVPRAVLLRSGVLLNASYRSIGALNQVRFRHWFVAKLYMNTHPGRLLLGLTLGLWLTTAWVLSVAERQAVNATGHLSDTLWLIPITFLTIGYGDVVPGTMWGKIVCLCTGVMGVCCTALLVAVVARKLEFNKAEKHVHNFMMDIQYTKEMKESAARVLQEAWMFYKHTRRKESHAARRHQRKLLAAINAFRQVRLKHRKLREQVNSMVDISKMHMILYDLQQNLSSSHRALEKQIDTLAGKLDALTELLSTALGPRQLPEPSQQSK
UniProt Q92952, whole entry: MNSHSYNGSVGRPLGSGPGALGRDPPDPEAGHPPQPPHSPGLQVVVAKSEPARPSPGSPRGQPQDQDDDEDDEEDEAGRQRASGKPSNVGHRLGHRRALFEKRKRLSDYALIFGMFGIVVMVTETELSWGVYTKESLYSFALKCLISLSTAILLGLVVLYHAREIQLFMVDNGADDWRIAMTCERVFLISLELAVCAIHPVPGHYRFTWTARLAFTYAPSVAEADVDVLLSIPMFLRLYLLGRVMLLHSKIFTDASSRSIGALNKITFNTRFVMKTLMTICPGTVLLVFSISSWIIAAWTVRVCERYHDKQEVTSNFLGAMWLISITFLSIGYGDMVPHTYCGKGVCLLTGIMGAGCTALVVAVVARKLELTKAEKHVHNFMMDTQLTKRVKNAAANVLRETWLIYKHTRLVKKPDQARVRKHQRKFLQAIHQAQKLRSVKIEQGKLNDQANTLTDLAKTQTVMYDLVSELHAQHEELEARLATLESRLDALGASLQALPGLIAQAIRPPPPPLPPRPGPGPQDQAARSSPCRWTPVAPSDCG

Active and inactive are the calls of the source. The calls are words filed in the database; no cut-off is given here.

What all share (format): cell-based
For experiment [1], the target named is Small conductance calcium-activated potassium channel protein 2 (Homo sapiens, UniProt Q9H2S1). In words: Positive modulation of SK2 in HEK293 cells in presence of Ca2+ by patch-clamp method relative to control. The conditions noted are these: filed as activator.
The target in experiment [2] is Intermediate conductance calcium-activated potassium channel protein 4 (Homo sapiens) (UniProt O15554). Kind of experiment: Activation of IK (unknown origin) expressed in HEK293 cells coexpressing CaM/GFP in presence of Ca2+ by electrophysiological method relative to control.
Experiment [3] deals with T1, Small conductance calcium-activated potassium channel protein 1 (Homo sapiens, UniProt Q92952). Kind of experiment: Activation of SK1 (unknown origin) expressed in HEK293 cells coexpressing CaM/GFP at 100 uM in presence of Ca2+ by electrophysiological method.
In experiment [4] the target is Intermediate conductance calcium-activated potassium channel protein 4 (Homo sapiens) (UniProt O15554). In words: Activation of IK (unknown origin) expressed in HEK293 cells coexpressing CaM/GFP at 100 uM in presence of Ca2+ by electrophysiological method.
The target in experiment [5] is T1, Small conductance calcium-activated potassium channel protein 1. In words: Activation of SK1 (unknown origin) expressed in HEK293 cells coexpressing CaM/GFP in presence of Ca2+ by electrophysiological method relative to control.

As to `Cc1cc(C)n(-c2nc(Nc3ccc(Cl)cc3)c3ncn(C)c3n2)n1`, the Efficacy in experiment [1] turned out to be 90%.
In the case of `Cc1ccn(-c2nc(Nc3ccc(F)cc3)c3ccn(C)c3n2)n1`, the Efficacy in experiment [2] was 31.9%; in experiment [5], 9.28%. Moreover, the result in experiment [3] and in experiment [4] was inactive.
